Reference: PubChem BioAssay AID540258 (Broad Institute, 2011)

Tested on: SK-MEL-5 TRPM1 promoter luciferase reporter, 24 h
Experiment: activation of TRPM1 promoter luciferase in melanoma cells – SK-MEL-5 cells, cherry-pick samples, dose response (AID 540258);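 also: potency for activators that raise TRPM1 promoter luciferase signal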

## Oc1ccc(/C=C/c2cc(O)cc(O)c2)cc1
  AC40: 719 nM
